This test has as its target T1, HIV protease (Human immunodeficiency virus type 1 group M subtype B, UniProt P04585).
T1 construct: HIV protease is diluted in the assay buffer to a final enzyme concentration of 12.3 nanomolar, based on a molecular weight of 10,780
Format: biochemical. Particulars: Table 16; enzyme assay. How it is done: The enzyme method is described below. […] The positive control is MVT-101 (Miller, M. et al, Science, 246, 1149 (1989)] The assay conditions are as follows:
Assay buffer: 20 mM sodium phosphate, pH 6.4
The above described substrate is dissolved in DMSO, then diluted 10 fold in assay buffer. Final substrate concentration in the assay is 80 μM.
The final concentration of DMSO is 14% and the final concentration of glycerol is 18%. The test compound is dissolved in DMSO and diluted in DMSO to 10× the test concentration; 10 μl of the enzyme preparation is added, the materials mixed and then the mixture is incubated at ambient temperature for 15 minutes. The enzyme reaction is initiated by the addition of 40 μl of substrate. The increase in fluorescence is monitored at 4 time points (0, 8, 16 and 24 minutes) at ambient temperature. Each assay is carried out in duplicate wells.

Molecules are shown by their SMILES.

The IC50 is the concentration needed to halve the response being measured. Read a low IC50 as inhibition by little substance. In the case of `COc1ccc(S(=O)(=O)N(CC(C)C)C[C@@H](O)[C@H](Cc2ccccc2)NC(=O)c2ccccc2C)cc1` [Table 16 Entry 29], the IC50 stood at 5 nM.

These data come from patent US5830897A, “α- and β-amino acid hydroxyethylamino sulfonamides useful as retroviral protease inhibitors” (G. D. Searle & Co., priority 1995, dated 1998).
